For 65 molecules, activation results are on record in PubChem BioAssay AID743238 (Broad Institute, 2013).

Only a part is listed here, and it is no random draw. Some salts and complexes are drawn in separate pieces, as the source files them; their charges need not balance. Active and inactive are the calls of the source.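 How the source made its calls: active means mean normalized replicate activation at least 10% and every replicate at or above 10%; inconclusive means only one of the two criteria met; inactive means mean below 10% and not all replicates reach 10%.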

A short description of this assay: activators of inactive X chromosome reactivation, primary screen, imaging, XiGFP fibroblasts, GFP high-content imaging, set 2 (AID 743238).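 Further: 0% = median of on-plate neutral control wells and 100% = ellipticine 6 µM median.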 The settings on record: XiGFP mouse fibroblasts, % GFP-positive cells imaging, 3 d; at 7.58 µM; stronger effect = higher value; cells co-treated with 5-aza-dC sensitizer; scaled so ellipticine positive control = 100%. The gist of the method:
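System: SV40-immortalized XiGFP fibroblast cells, line 68-5-11 / Incubation: 3-day compound exposure, then 15 min fixation at room temperature / Compound: single concentration per compound, delivered by pin transfer / Buffer or medium: DMEM plus 5-aza-dC sensitizer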
`CCOC(=O)c1ccc(NP(C)(=O)Oc2ccc(Cl)cc2)cc1` (stereo not given): the activation is inactive: -0.0505%.
The value for `Nc1ccc2c(ccc3cccnc32)n1.O=[N+]([O-])c1cc([N+](=O)[O-])c(O)c([N+](=O)[O-])c1` was inactive: 0.0065%; that for `CCc1ccc(OP(C)(=O)Nc2cccnc2)cc1` (stereo not given) was inactive: 0.115%.
The value for `O=C(OCCCN1CCCC1)C(O)(c1ccccc1)C1CCCCC1` (stereo not given) was inactive: -0.0795%; that for `COc1ccc(OP(C)(=O)Nc2ccc(Br)cc2)cc1` (stereo not given) was inactive: 0%.
For the molecule `CN(C)C(=O)c1c([N+](=O)[O-])cc([N+](=O)[O-])cc1[N+](=O)[O-]`, the activation was inactive: 1.01%.
`COc1ccccc1OP(C)(=O)Nc1ccccc1Br` (stereo not given): the activation is inactive: 0.0955%.
The value for `COc1ccccc1OP(C)(=O)Nc1ccc(Br)cc1` (stereo not given) was inactive: -0.134%.
For `O=[N+]([O-])c1cc([N+](=O)[O-])c(Nc2ccccn2)c([N+](=O)[O-])c1`, the activation was inactive: 0.548%.
The value for `COc1ccc(OP(C)(=O)Nc2ccccc2Br)cc1` (stereo not given) was inactive: -0.148%; that for `O=C1C(O)=C([N+](=O)[O-])C(=O)C(O)=C1[N+](=O)[O-]` was inactive: 0.129%; that for `Cc1cc(C)cc(OP(C)(=O)Nc2cccc(C(F)(F)F)c2)c1` (stereo not given) was inactive: -0.0085%.
On to `CP(=O)(OCCOc1ccccc1)OCCOc1ccccc1`, for which the activation is inactive: 0.151%.
Then `CP(=O)(Nc1ccc(Cl)cc1Cl)Oc1ccccc1` (stereo not given), with inactive: -0.0075%; and `CCCCCCCCCCCCCCCC1C[N+](C)(C)CCOP(C)(=O)O1` (stereo not given), with inactive: -0.0835%.
The value for `COc1ccc(OP(C)(=O)Nc2ccc(SC(F)(F)F)cc2)cc1` (stereo not given) was inactive: 0%; that for `CCOC(=O)c1ccc(NP(C)(=O)Oc2ccc(F)cc2)cc1` (stereo not given) was inactive: 0.0325%; that for `CCN(CC)CCCNc1ccccc1[N+](=O)[O-].O=[N+]([O-])c1cc([N+](=O)[O-])c(O)c([N+](=O)[O-])c1` was inactive: -0.215%.
The value for `O=[N+]([O-])c1cc([N+](=O)[O-])c(OC2CCCCC2O)c([N+](=O)[O-])c1` (stereo not given) was inactive: -0.0385%.
Turning to `CCCCCOc1ccc(NP(C)(=O)Oc2ccc(Cl)cc2Cl)cc1` (stereo not given), the activation was inactive: 0.0935%.
With `Cc1c([N+](=O)[O-])cc([N+](=O)[O-])c(Br)c1[N+](=O)[O-]`, the activation is inactive: 0.0895%.
The value for `CC(C)c1ccc(OP(C)(=O)Nc2ccc(SC(F)(F)F)cc2)cc1` (stereo not given) was inactive: -0.173%.
The value for `O=[N+]([O-])c1cc([N+](=O)[O-])c(Nc2ccc(Cl)cc2)c([N+](=O)[O-])c1` was inactive: 0.324%.
For `COc1ccc2c(c1O)-c1c(O)c(OC)cc3c1[C@H](C2)[N+](C)(C)CC3.O=[N+]([O-])c1cc([N+](=O)[O-])c([O-])c([N+](=O)[O-])c1[O-]`, the activation was inactive: 0.555%.
Then `O=C(OCCN1CCN(CCOCc2ccccc2)CC1)C(O)(c1ccccc1)c1ccccc1`, with inactive: -0.093%; and `O=C(OC1CN2CCC1CC2)c1ccc([N+](=O)[O-])cc1` (stereo not given), with inactive: 0.071%; and `CP(=O)(Nc1ccc(SC(F)(F)F)cc1)Oc1ccc(F)cc1` (stereo not given), with inactive: 0.369%.
Then `O=[N+]([O-])c1cc([N+](=O)[O-])c(C(F)(F)F)c([N+](=O)[O-])c1O`, with inactive: 0.021%.
Then `COc1ccc(NP(C)(=O)Oc2ccccc2OC)cc1` (stereo not given), with inactive: 0.0665%; and `Cc1c(C(c2ccc3c(c2)OCO3)c2c(C)n(C)n(-c3ccccc3)c2=O)c(=O)n(-c2ccccc2)n1C.O=[N+]([O-])c1cc([N+](=O)[O-])c(O)c([N+](=O)[O-])c1`, with inactive: -0.0685%; and `Cc1cc(-c2cccc3ccccc23)c(C)cn1.O=[N+]([O-])c1cc([N+](=O)[O-])c(O)c([N+](=O)[O-])c1`, with inactive: 0.472%.
Consider `O=[N+]([O-])c1cc([N+](=O)[O-])c(NCC2CCS(=O)(=O)C2)c([N+](=O)[O-])c1` (stereo not given), for which the activation is inactive: -0.15%.
The value for `O=[N+]([O-])c1ccc(OP2(=O)COCCO2)cc1` (stereo not given) was inactive: -0.019%; that for `O=[N+]([O-])c1cc([N+](=O)[O-])c(Nc2nnnn2CCO)c([N+](=O)[O-])c1` was inactive: 0.0105%; that for `CCOC(=O)C(CC)C1=NC(C)(C)Cc2ccccc21.O=[N+]([O-])c1cc([N+](=O)[O-])c(O)c([N+](=O)[O-])c1` (stereo not given) was inactive: -0.085%.
For `CP(=O)(Nc1ccc(SC(F)(F)F)cc1)Oc1ccccc1` (stereo not given), the activation was inactive: 0.146%.
Take `CCCOc1ccc(NP(C)(=O)Oc2ccc(Cl)cc2)cc1` (stereo not given): the activation was inactive: 0.254%.
Then `COc1ccc(-c2ccccn2)cc1.O=[N+]([O-])c1cc([N+](=O)[O-])c(O)c([N+](=O)[O-])c1`, with inactive: -0.082%.
Then `CN1CCCCC1COC(=O)C1(O)c2ccccc2CCc2ccccc21` (stereo not given), with inactive: -0.103%.
The value for `CN(Cc1cccnc1)C(=O)COc1ccc(Cl)c(Cl)c1.O=[N+]([O-])c1cc([N+](=O)[O-])c(O)c([N+](=O)[O-])c1` was inactive: 0.002%; that for `O=[N+]([O-])c1cc([N+](=O)[O-])c(-n2nnc3ccccc32)c([N+](=O)[O-])c1` was inactive: 0%; that for `O=[N+]([O-])c1cc([N+](=O)[O-])c(-c2cnn(-c3ccccc3)c2)c([N+](=O)[O-])c1` was inactive: -0.0435%.
As to `CCOC(=O)c1ccc(NP(C)(=O)Oc2cc(C)cc(C)c2)cc1` (stereo not given), the activation is inactive: 0.0575%.
For `COc1ccccc1OP(C)(=O)Nc1cccc(Br)c1` (stereo not given), the activation is inactive: -0.16%.
The value for `CP(=O)(Nc1cccc(Br)c1)Oc1ccccc1` (stereo not given) was inactive: 0.391%; that for `O=C(O)c1cccc(Nc2c([N+](=O)[O-])cc([N+](=O)[O-])cc2[N+](=O)[O-])c1` was inactive: 3.82%; that for `CC1=NCCc2c1[nH]c1ccccc21.O=[N+]([O-])c1cc([N+](=O)[O-])c(O)c([N+](=O)[O-])c1` was inactive: 0.035%.
Regarding `CC(C)(C)c1ccc(OP(C)(=O)Nc2ccc(SC(F)(F)F)cc2)cc1` (stereo not given), the activation was inactive: -0.0895%.
Then `Cc1cccc(C)c1OP(C)(N)=O` (stereo not given), with inactive: 0.174%; and `O=[N+]([O-])c1ccc2c(c1)C=Nc1ccccc1O2`, with inactive: 0.295%; and `O=[N+]([O-])c1cc([N+](=O)[O-])c(Nc2cccnc2)c([N+](=O)[O-])c1`, with inactive: 0.0715%.
The value for `COc1ccccc1OP(C)(=O)Nc1cc(Cl)ccc1C` (stereo not given) was inactive: 0.017%; that for `Cc1cc(C)cc(OP(C)(N)=O)c1` (stereo not given) was inactive: 0.005%; that for `CCOC(=O)c1ccc(NP(C)(=O)Oc2ccccc2)cc1` (stereo not given) was inactive: 0.13%.
Then `CCN(CC)CCCOC(=O)C(O)(c1ccccc1)c1ccccc1`, with inactive: 0.686%.
With `COc1ccccc1-c1ccccn1.O=[N+]([O-])c1cc([N+](=O)[O-])c(O)c([N+](=O)[O-])c1`, the activation was inactive: -0.0575%.
`CCc1ccc(OP(C)(=O)N2CCN(c3ccc([N+](=O)[O-])cc3)CC2)cc1` (stereo not given): the activation is inactive: -0.0325%.
On to `Cc1cc(C)cc(OP(C)(=O)Nc2ccc(SC(F)(F)F)cc2)c1` (stereo not given), for which the activation was inactive: 0.004%.
The value for `CP(=O)(Nc1ccc(SC(F)(F)F)cc1)Oc1ccc(Cl)cc1` (stereo not given) was inactive: -0.193%.
Then `Cc1cccc(C)c1OP(C)(=O)Nc1ccc(SC(F)(F)F)cc1` (stereo not given), with inactive: 0.124%; and `CP(=O)(Oc1ccccc1)OC(c1ccccc1)C(F)(F)F` (stereo not given), with inactive: 0.0275%; and `O=[N+]([O-])c1cc([N+](=O)[O-])c(O)c([N+](=O)[O-])c1.c1ccc(Oc2ccncc2)cc1`, with inactive: 0.141%.
The value for `CCOC(=O)c1ccc(NP(C)(=O)Oc2ccc(OC)cc2)cc1` (stereo not given) was inactive: -0.091%.
For the molecule `COc1ccccc1OP(C)(=O)Nc1ccccc1` (stereo not given), the activation is inactive: 0.766%.
Then `CP(=O)(Nc1ccccc1Br)Oc1ccccc1` (stereo not given), with inactive: 0.0115%.
